In patent US4701521A, “Method of effecting cellular uptake of molecules” (The Trustees of Boston University, priority 1979, dated 1987):
Where two headings read alike, the source gives them in different places.

Legend:
[1] = tested on: Sarcoma S-180 monolayers; settings: reincubation up to 24 hours
[2] = tested on: BHK(DMN) Ts cells
[3] = reincubation 24 hours at 32°, Normal

| Substance | release of labeled breakdown product into the medium (acid soluble radioactivity) ([1]; 0.2 μg/ml, MW 115,000, 60 min load) | cell-associated acid soluble radioactivity [1] | Radioactivity In Cells ([2]; 32°, Transformed) | Radioactivity In Medium ([2]; 32°, Transformed) | Radioactivity In Cells ([2]; 38.5°, Normal) | Radioactivity In Medium ([2]; 38.5°, Normal) | Radioactivity In Cells ([2]; 38.5°, Transformed) | Radioactivity In Medium ([2]; 38.5°, Transformed) | Radioactivity In Cells [2, 3] | Radioactivity In Medium [2, 3] |
| --- | --- | --- | --- | --- | --- | --- | --- | --- | --- | --- |
| poly-L-lysine [PLL] | increases linearly between 1 and 12 hours | remained essentially constant over a period of 24 hours | 11.3 ng ^125 I-PLL per mg Cell Prot | 20.4 ng ^125 I-PLL per mg Cell Prot | 11.8 ng ^125 I-PLL per mg Cell Prot | 20.6 ng ^125 I-PLL per mg Cell Prot | 9.7 ng ^125 I-PLL per mg Cell Prot | 26.9 ng ^125 I-PLL per mg Cell Prot | 12.4 ng ^125 I-PLL per mg Cell Prot | 13.6 ng ^125 I-PLL per mg Cell Prot |
| poly-D-lysine [PDL] |  |  | 30.1 ng ^125 I-PLL per mg Cell Prot | 3.63 ng ^125 I-PLL per mg Cell Prot | 20.1 ng ^125 I-PLL per mg Cell Prot | 4.87 ng ^125 I-PLL per mg Cell Prot | 35.7 ng ^125 I-PLL per mg Cell Prot | 6.06 ng ^125 I-PLL per mg Cell Prot | 21.5 ng ^125 I-PLL per mg Cell Prot | 3.29 ng ^125 I-PLL per mg Cell Prot |
